Where “and” joins values, the source holds several entries; their conditions need not be identical. Equal values may be shown once. Only a part is listed here, and it is no random draw. Calls of active or inactive are those of the source. How the source made its calls: active means hit-call score of the fitted dose curve at least 0.9, where 1 is the maximum; inactive means score below 0.9.
experiment: ATG_VDRE_CIS: Attagene CIS-FACTORIAL HepG2 Assay for human Vitamin D Receptor Element (VDRE) (AID 2282968); conditions: HepG2 VDRE cis-reporter transcription, actives raise or lower the signal
Method: ATG_CIS is a cell-based, multiplexed-readout assay that uses HepG2, a human liver cell line, with measurements taken at 24 hours after chemical dosing in a 24-well plate.ATG_VDRE_CIS is one of 52 assay component(s) measured or calculated from the ATG_CIS assay. It is designed to make measurements of mRNA induction, a form of inducible reporter, as detected with fluorescence intensity signals by Reverse transcription polymerase chain reaction (RT-PCR) and Capillary electrophoresis technology.Data from the assay component ATG_VDRE_CIS was analyzed into 1 assay endpoint. This assay endpoint, ATG_VDRE_CIS, was analyzed with bidirectional fitting relative to DMSO as the negative control and baseline of activity. Using a type of inducible reporter, measures of mRNA for gain or loss-of-signal activity can be used to understand the reporter gene at the transcription factor-level as they relate to the gene VDR. Furthermore, this assay endpoint can be referred to as a primary readout, because this assay has produced multiple assay endpoints where this one serves a reporter gene function. To generalize the intended target to other relatable targets, this assay endpoint is annotated to the nuclear receptor intended target family, where the subfamily is non-steroidal.
Human liver HepG2 cells are transiently transfected with multiple reporter transcription units (MRTUs) in 6-well plates using FuGene 6 reagent (Roche; 3 ml FuGene/1 mg DNA). The MRTU constructs are regulated by a cis-regulating element (promoter). […] A major difference between the CIS and TRANS system is that in CIS activities of endogenous TFs are measured, whereas the TRANS assay evaluates changes in activities of exogenous, chimeric NR-Gal4 proteins. […] At the end of 24 hour incubation, total RNA was isolated using TriZol reagent (Invitrogen). The isolated RNA is then reverse-transcribed using oligo(dT) primer and Mo-MLV reverse transcriptase (Invitrogen) with DNAse I (Ambion) treatment for 30 min. The one-tenth of the produced cDNA was amplified by PCR using Taq DNA polymerase (Invitrogen) and two reporter sequence-specific primers. The PCR products were fluorescently labeled by primer extension with 6-arboxyfluorescein (6-FAM) 5'-labeled reporter sequence-specific primer (2 min at 95 C, 20 s at 68 C and 10 min at 72 C) and these products were digested with 5U of HpaI (New England Biolabs) for 2h at 37 C. The fragments were purified using Qiaquick PCR columns (Qiagen), analyzed on an ABI 3130xL genetic analyzer (Applied Biosystems) with peak positions identified by using a set of X-rhodamine (ROX)-labeled MapMarker1000 molecular weight standards (BioVentures). The raw capillary electrophoresis data was processed using Attagraph software (Attagene).

SMILES	outcome	AC50
O=[p+]1oc2ccccc2c2ccccc21 (stereo not given)	inactive	
O=C(Cl)Oc1ccccc1		active: 83.4 nM
Cc1cc([N+](=O)[O-])cc([N+](=O)[O-])c1O	inactive	
O=[As]c1ccccc1 (stereo not given)		active: 279 nM
O=C1C2CC=CCC2C(=O)N1SC(Cl)(Cl)C(Cl)Cl (stereo not given)	inactive	
O=[N+]([O-])c1ccc([N+](=O)[O-])cc1	inactive	
CN(C(=O)Cc1cccc2occc12)[C@H]1CC[C@@]2(CCCO2)C[C@@H]1N1CCCC1	inactive	
O=P(Cl)(Oc1ccccc1)Oc1ccccc1	inactive	
CCCCC(CC)CO[P+](=O)OCC(CC)CCCC (stereo not given)		active: 27800 nM
CC(C)OP(=S)(OC(C)C)SCCNS(=O)(=O)c1ccccc1		active: 297 nM and active: 701 nM and active: 900 nM
CCCCO[P+](=O)OCCCC	inactive	
O=C(Cl)OCCOC(=O)Cl	inactive	
O=[P+](Oc1ccccc1)Oc1ccccc1	inactive	
CCCCOP(OCCCC)OCCCC		active: 26100 nM
ClP(Cl)c1ccccc1	inactive	

Source: PubChem BioAssay (EPA / NIEHS)
